Measurements from BindingDB's records for doi:10.1046/j.1471-4159.1996.67010058.x (Cns Research, 1996).

The chains behind the UniProt entries cited, without tags or fusion partners. Where a name states a change or a piece, a line headed by the entry shows the natural chain unless it says otherwise.
UniProt Q13255: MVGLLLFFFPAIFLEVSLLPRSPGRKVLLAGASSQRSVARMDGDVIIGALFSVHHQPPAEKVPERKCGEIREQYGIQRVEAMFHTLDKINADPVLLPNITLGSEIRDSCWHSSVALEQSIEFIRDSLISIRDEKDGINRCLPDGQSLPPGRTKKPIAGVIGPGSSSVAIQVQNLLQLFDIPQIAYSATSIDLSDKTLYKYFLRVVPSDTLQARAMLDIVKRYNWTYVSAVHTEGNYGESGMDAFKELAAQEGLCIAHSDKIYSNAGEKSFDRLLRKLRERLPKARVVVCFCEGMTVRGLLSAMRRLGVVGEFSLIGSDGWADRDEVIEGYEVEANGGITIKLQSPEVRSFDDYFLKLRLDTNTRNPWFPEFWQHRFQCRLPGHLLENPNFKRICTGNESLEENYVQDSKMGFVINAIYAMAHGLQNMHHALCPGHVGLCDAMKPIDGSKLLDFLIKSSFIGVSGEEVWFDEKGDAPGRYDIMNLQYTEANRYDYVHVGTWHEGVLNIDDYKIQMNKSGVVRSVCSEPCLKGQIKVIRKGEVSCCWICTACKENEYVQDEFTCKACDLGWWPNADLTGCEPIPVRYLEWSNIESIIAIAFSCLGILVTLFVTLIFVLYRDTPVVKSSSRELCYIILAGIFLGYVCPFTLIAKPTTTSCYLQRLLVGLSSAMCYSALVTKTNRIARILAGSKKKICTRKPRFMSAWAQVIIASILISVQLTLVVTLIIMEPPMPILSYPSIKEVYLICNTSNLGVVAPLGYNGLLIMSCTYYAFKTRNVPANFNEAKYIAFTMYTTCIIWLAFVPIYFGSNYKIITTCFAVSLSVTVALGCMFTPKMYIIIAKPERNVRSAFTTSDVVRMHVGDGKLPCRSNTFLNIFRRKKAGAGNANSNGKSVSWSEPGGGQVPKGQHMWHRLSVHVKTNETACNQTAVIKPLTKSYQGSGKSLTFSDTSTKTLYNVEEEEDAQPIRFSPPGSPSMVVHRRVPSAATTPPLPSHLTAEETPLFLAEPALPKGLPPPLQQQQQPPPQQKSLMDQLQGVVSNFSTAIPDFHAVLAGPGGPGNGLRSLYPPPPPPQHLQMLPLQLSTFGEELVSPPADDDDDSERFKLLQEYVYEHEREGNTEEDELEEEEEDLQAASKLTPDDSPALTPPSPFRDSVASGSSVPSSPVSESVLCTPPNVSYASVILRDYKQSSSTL

Target: Metabotropic glutamate receptor 1 (Homo sapiens, UniProt Q13255)

Q: Which Ki does the source give for `N[C@@H](Cn1oc(=O)[nH]c1=O)C(=O)O` [2-amino-3-(3,5-dioxo[1,2,4]oxadiazolidin-2-yl)propionic acid] here?
A: The Ki was 0.03 µM.
